“And” between values parts separate entries of the source, which are not always exact repeats. Identical values can stand only once. This is a selection; strong and weak results do not stand in their true shares. Results filed as inconclusive are left out. The source made the active and inactive calls. Rule as the data show it: active = activation above about 80%; inconclusive = between about 30% and that limit; inactive = weaker than that.

By UniProt entry, the sequences of proteins in these tests, tags left out.
UniProt Q8NER1, whole entry, looked up: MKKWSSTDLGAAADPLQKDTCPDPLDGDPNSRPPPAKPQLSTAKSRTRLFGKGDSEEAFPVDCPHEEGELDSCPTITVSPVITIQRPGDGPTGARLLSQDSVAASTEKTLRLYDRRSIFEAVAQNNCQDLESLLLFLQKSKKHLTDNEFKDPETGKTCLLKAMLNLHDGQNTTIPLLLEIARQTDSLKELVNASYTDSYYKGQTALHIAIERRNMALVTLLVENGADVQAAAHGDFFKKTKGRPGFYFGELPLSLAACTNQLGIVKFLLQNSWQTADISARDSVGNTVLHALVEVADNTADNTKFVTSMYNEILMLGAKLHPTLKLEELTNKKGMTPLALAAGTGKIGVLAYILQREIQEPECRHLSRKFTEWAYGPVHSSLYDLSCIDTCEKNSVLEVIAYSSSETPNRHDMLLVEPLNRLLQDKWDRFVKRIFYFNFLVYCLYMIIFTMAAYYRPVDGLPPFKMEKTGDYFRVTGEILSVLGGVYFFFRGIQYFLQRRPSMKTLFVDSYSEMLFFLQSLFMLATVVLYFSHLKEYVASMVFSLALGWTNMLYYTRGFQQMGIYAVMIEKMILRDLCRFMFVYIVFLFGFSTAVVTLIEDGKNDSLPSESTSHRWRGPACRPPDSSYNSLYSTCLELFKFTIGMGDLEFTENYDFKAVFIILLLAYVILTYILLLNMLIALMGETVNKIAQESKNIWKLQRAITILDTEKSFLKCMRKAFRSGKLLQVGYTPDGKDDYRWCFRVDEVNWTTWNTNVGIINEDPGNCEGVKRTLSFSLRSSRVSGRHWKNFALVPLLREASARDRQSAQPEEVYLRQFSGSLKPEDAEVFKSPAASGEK

The assay addresses Transient receptor potential cation channel subfamily V member 1 (Homo sapiens) (UniProt Q8NER1). As to the kind of experiment: HTS Assay for Compounds that Act as Agonists of the Vanilloid Receptor 1. Also: 0% is about no effect. The settings on record: TRPV1-expressing cells, Fluo-8 calcium influx, agonist mode; at 8.33 µM; stronger effect = higher value. The source says:
The transient receptor potential ion channel, family V, number 1, (TRPV1) is one of the most important molecular transducers of painful stimuli and a potential target for analgesic drug development. Although recent clinical trials with orthosteric antagonists have not produced a successful drug because of a hyperthermia side effect and their tendency to block thermal noxious pain, this ion channel is undeniably well placed in the pain pathway, and the idea of blocking pain signals before they enter the CNS is an excellent concept and of proven efficacy when TRPV1 agonists are used. We propose a new approach involving allosteric modulation to impose an activity-dependent constraint within the context of inflammation and tissue damage that would alter the responsiveness of the channel in a way that an orthosteric vanilloid antagonist cannot achieve. We believe that the allosteric modulator approach has not been explored for this target. The main goal of this proposal is to identify additional, new, potent allosteric modulators of TRPV1 that can be used to investigate TRPV1 function. Our recent report provides evidence of proof of concept, but the compounds are just at the edge of utility in terms of potency. […] The question of whether they can be used as analgesic agents is complex, but if suitable compounds are identified then testing for analgesic properties will be conducted. NIH Chemical Genomics Center [NCGC] NIH Molecular Libraries Probe Centers Network [MLPCN] MLPCN Grant: MH089480-1A1 Assay Submitter (PI): Michael Iadarola, National Institute of Dental and Cranofacial Research
Upon TRPV1 activation in TRPV1 cells, the channel opens and extracellular cations flow through the channel into the cytosol. A calcium binding dye (Fluo-8) becomes fluorescent when bound to calcium. This dye is pre-loaded into cells and is used as a marker for calcium influx. The amount of accumulated calcium is precisely quantified using the FDSS kinetic reader and the calcium dye. For the HTS assay, freshly prepared cells are plated at a density of 2000/well in 3 ul medium in 1536-well plates and cultured overnight at 35.5C. Cells will be loaded with 1 ul of the homogeneous calcium dye (ABD Bioquest) at room temperature for 40 to 90 minutes. Plates will be loaded into the FDSS kinetic reader and a 1 sec / cycle for 10 second baseline signal will be measured. Compound library will then be added with a pintool at 23 nl and measured kinetically for 3 minutes. This portion of the read is considered the agonist portion of the screen. Following the 3 minutes of incubation, an on board pipettor will deliver 1 ul of capsaicin for a final concentration equal to the EC20. Signal will be measured kinetically for an additional 2 minutes. This portion of the read is considered the allosteric enhancer portion of the screen. The FDSS reader has a standard filter set capable of measuring calcium bound Fluo-8 (ex=480 and em=520 nm).
As for `Cc1ccc(NP(=O)(Oc2ccccc2F)Oc2ccccc2F)nc1`, the activation was inactive: -1.96%. Take `Cc1cc(SC(NC(=O)c2ccc(F)cc2)C(Cl)(Cl)Cl)ncn1` (stereo unspecified): the activation is inactive: -1.69%.

For `CCOP(=O)(Nc1ccccc1)OCC`, the activation is inactive: -3.38% and inactive: 1.15%. In the case of `CC(=O)Nc1ccc([As](=O)(O)O)cc1` it was inactive: 3.09%. `O=C(O)c1ccccc1[As](=O)(O)O`: the activation was inactive: -2.09%.

As to `Nc1cccc2ccc([As](=O)(O)O)cc12`, the activation is inactive: 0.489%. For the compound `CCN(N=Nc1nonc1N)c1nonc1N`, the activation is inactive: -5.41%.

`O=[N+]([O-])c1cc([N+](=O)[O-])c(CCN2CCOCC2)c([N+](=O)[O-])c1`: the activation is inactive: -1.41%. With `CN1CCCC(OC(=O)C(c2ccccc2)c2ccccc2)C1` (stereo unspecified), the activation was inactive: 2.35%. With `Clc1ccc(Cl)c(NC2=NCC(CBr)S2)c1` (stereo unspecified), the activation was inactive: 13.6%. On to `Cc1ccc(OP(=O)(Nc2nccs2)Oc2ccc(C)cc2)cc1`, for which the activation was inactive: 14.8%. For `COc1ccccc1OP(=O)(Nc1ccc(C)cn1)Oc1ccccc1OC`, the activation was inactive: 6.11%. As to `Cc1ccc(N/C(=N/P(=O)(N2CCOCC2)N2CCOCC2)N2CCOCC2)cc1`, the activation was inactive: 3.66%. As for `CN(C(=O)Cc1ccc(Cl)c(Cl)c1)[C@H]1CCCC[C@H]1N1CCCC1`, the activation is inactive: 3.72%. As for `NC(=O)c1cc([N+](=O)[O-])cc([N+](=O)[O-])c1N`, the activation is inactive: -3.13%. As for `O=C(NC(Sc1ccncn1)C(Cl)(Cl)Cl)c1ccccc1` (stereo unspecified), the activation is inactive: 0.882%. With `Cc1c2non([O-])c-2c(C)[n+](=O)[n+]1[O-]`, the activation is inactive: 1.59%.

Turning to `Oc1ccccc1CNc1ccccn1`, the activation is inactive: 12.2%.

In the case of `Nc1cc(N)c2nonc2c1[N+](=O)[O-]`, the activation is inactive: 0.262%. For the compound `CCc1nc2c(n1)c1c(non1O)c1c2no[n+]1[O-]`, the activation is inactive: -0.733%.

On to `O=[N+]([O-])c1cc([N+](=O)[O-])c(CCNc2ccccc2)c([N+](=O)[O-])c1`, for which the activation is inactive: -0.35%. For `Cc1ccc(NP(=O)(Oc2ccccc2)Oc2ccccc2)nc1`, the activation was inactive: 12.2%.

In the case of `O=[N+]([O-])c1cccc2n[nH]nc12`, the activation was inactive: -0.86%. For `CC(=O)N1C2C3N(C(C)=O)C1C1N(C(C)=O)C(C(N1C(C)=O)N3C(C)=O)N2C(C)=O` the value was inactive: -4.95%; for `COc1ccc(C2=NCC(CBr)S2)cc1` (stereo unspecified), inactive: -2.82%; for `CC1CCN(C(=O)Oc2c(Cl)cc(Cl)c3cccnc23)CC1`, inactive: 28.3%. As for `CN(C)C(=O)OCCc1n(C)cc[n+]1C`, the activation was inactive: 1.25%. On to `CC(C)=N/N=C(\N)N[N+](=O)[O-]`, for which the activation was inactive: -1.91%.

As to `CCN(/C(=N/P(=O)(N1CCOCC1)N1CCOCC1)N1CCOCC1)c1ccc(OC)cc1`, the activation is inactive: 1.49%. In the case of `C[N+]1=C2C=CC=CC=C2SC12C([N+](=O)[O-])=CC([N+](=O)[O-])=C[C-]2[N+](=O)[O-]` (stereo unspecified) it was inactive: -1.71%.

As for `Nc1ccc([As](=O)(O)c2ccc(N)cc2)cc1`, the activation was inactive: -0.155%. In the case of `O=C(Nc1cc([As](=O)(O)O)ccc1O)c1ccccc1` it was inactive: 8.7%. In the case of `O=C(O)CNc1ccc([As](=O)(O)O)cc1` it was inactive: 0.808%. On to `O=[N+]([O-])c1cccc(NC2=NCC(CBr)S2)c1` (stereo unspecified), for which the activation is inactive: -1.87%. Consider `O=[N+]([O-])c1ncn(CCn2ncnc2[N+](=O)[O-])n1`, for which the activation is inactive: -4.39%. As to `CC(C)(C)C(=O)NC(Sc1ccncn1)C(Cl)(Cl)Cl` (stereo unspecified), the activation is inactive: -1.71%.

Source of the values: PubChem BioAssay AID540275 (National Center for Advancing Translational Sciences (NCATS), 2011).
